This passage reports Vmax results from patent US20110275102.

In one series the target is T1, RPRTSSF.
T1 chain: RPRTSSF

Another series deals with T2, Crosstide GRPRTSSFAEG
T2 chain: GRPRTSSFAEG

A further series addresses T3, RPRTSTF.
T3 chain: RPRTSTF

B1: p70 S6 kinase purified from rat liver (protein)
chain: MRRRRRRDGFYPAPDFRHREAEDMAGVFDIDLDQPEDAGSEDELEEGGQLNESMDHGGVGPYELGMEHCEKFEISETSVNRGPEKIRPECFELLRVLGKGGYGKVFQVRKVTGANTGKIFAMKVLKKAMIVRNAKDTAHTKAERNILEEVKHPFIVDLIYAFQTGGKLYLILEYLSGGELFMQLEREGIFMEDTACFYLAEISMALGHLHQKGIIYRDLKPENIMLNHQGHVKLTDFGLCKESIHDGTVTHTFCGTIEYMAPEILMRSGHNRAVDWWSLGALMYDMLTGAPPFTGENRKKTIDKILKCKLNLPPYLTQEARDLLKKLLKRNAASRLGAGPGDAGEVQAHPFFRHINWEELLARKVEPPFKPLLQSEEDVSQFDSKFTRQTPVDSPDDSTLSESANQVFLGFTYVAPSVLESVKEKFSFEPKIRSPRRFIGSPRTPVSPVKFSPGDFWGRGASASTANPQTPVEYPMETSGIEQMDVTTSGEASAPLPIRQPNSGPYKKQAFPMISKRPEHLRMNL
As for B1, the Vmax was found to be 705 U/mg in the series with RPRTSSF, 1270 U/mg in the series with Crosstide GRPRTSSFAEG and 590 U/mg with RPRTSTF.
